Measured values published in patent US7115621B2, “Chemical compounds” (Lilly Icos LLC, priority 2001, dated 2006).

Columns and labels:
recombinant human PDE5 = recombinant human PDE5 (Homo sapiens, UniProt O76074); test: Inhibitory effect on cGMP-PDE, one-step assay, human recombinant PDE5; conditions: read-out: PDE5 IC50, Table 2, Intermediates
Description: The compounds of structural formula (I) were tested for an ability to inhibit PDE5. The ability of a compound to inhibit PDE5 activity is related to the IC50 value for the compound, i.e., the concentration of inhibitor required for 50% inhibition of enzyme activity. The IC50 value for compounds of structural formula (I) were determined using recombinant human PDE5.
Recombinant production of human PDE1B, PDE2, PDE4A, PDE4B, PDE4C, PDE4D, PDE5, and PDE7 was carried out similarly to that described in Example 7 of U.S. Pat. No. 5,702,936, incorporated herein by reference, except that the yeast transformation vector employed, which is derived from the basic ADH2 plasmid described in Price et al., Methods in Enzymology, 185, pp. 308–318 (1990), incorporated yeast ADH2 promoter and terminator sequences and the Saccharomyces cerevisiae host was the protease-deficient strain BJ2-54 deposited on Aug. 31, 1998 with the American Type Culture Collection, Manassas, Virginia, under accession number ATCC 74465. Transformed host cells were grown in 2×SC-leu medium, pH 6.2, with trace metals, and vitamins. After 24 hours, YEP medium-containing glycerol was added to a final concentration of 2×YET/3% glycerol. Approximately 24 hr later, cells were harvested, washed, and stored at −70° C.
Phosphodiesterase activity of the preparations was determined as follows. PDE assays utilizing a charcoal separation technique were performed essentially as described in Loughney et al. (1996). In this assay, PDE activity converts [32P]cAMP or [32P]cGMP to the corresponding [32P]5′-AMP or [32P]5′-GMP in proportion to the amount of PDE activity present. The [32P]5′-AMP or [32P]5′-GMP then was quantitatively converted to free [32P]phosphate and unlabeled adenosine or guanosine by the action of snake venom 5′-nucleotidase. […] The assay was performed at 30° C. in a 100 μL reaction mixture containing (final concentrations) 40 mM Tris HCl (pH 8.0), 1 μM ZnSO4, 5 mM MgCl2, and 0.1 mg/mL bovine serum albumin (BSA). PDE enzyme was present in quantities that yield <30% total hydrolysis of substrate (linear assay conditions). The assay was initiated by addition of substrate (1 mM [32P]cAMP or cGMP), and the mixture was incubated for 12 minutes. Seventy-five (75) μg of Crotalus atrox venom then was added, and the incubation was continued for 3 minutes (15 minutes. total). The reaction was stopped by addition of 200 μL of activated charcoal (25 mg/mL suspension in 0.1 M NaH2PO4, pH 4). After centrifugation (750×g for 3 minutes) to sediment the charcoal, a sample of the supernatant was taken for radioactivity determination in a scintillation counter and the PDE activity was calculated.
Cell pellets (29 g) were thawed on ice with an equal volume of Lysis Buffer (25 mM Tris HCl, pH 8, 5 mM MgCl2, 0.25 mM DTT, 1 mM benzamidine, and 10 μM ZnSO4). Cells were lysed in a Microfluidizer® (Microfluidics Corp.) using nitrogen at 20,000 psi. The lysate was centrifuged and filtered through 0.45 μm disposable filters. The filtrate was applied to a 150 mL column of Q SEPHAROSE® FastFlow (Pharmacia). The column was washed with 1.5 volumes of Buffer A (20 mM Bis-Tris Propane, pH 6.8, 1 mM MgCl2, 0.25 mM DTT, 10 μM ZnSO4) and eluted with a step gradient of 125 mM NaCl in Buffer A followed by a linear gradient of 125–1000 mM NaCl in Buffer A. Active fractions from the linear gradient were applied to a 180 mL hydroxyapatite column in Buffer B (20 mM Bis-Tris Propane (pH 6.8), 1 mM MgCl2, 0.25 mM DTT, 10 μM ZnSO4, and 250 mM KCl). After loading, the column was washed with 2 volumes of Buffer B and eluted with a linear gradient of 0–125 mM potassium phosphate in Buffer B. Active fractions were pooled, precipitated with 60% ammonium sulfate, and resuspended in Buffer C (20 mM Bis-Tris Propane, pH 6.8, 125 mM NaCl, 0.5 mM DTT, and 10 μM ZnSO4). The pool was applied to a 140 mL column of SEPHACRYL® S-300 HR and eluted with Buffer C. Active fractions were diluted to 50% glycerol and stored at −20° C. […]

PDE5 (bovine aorta) = PDE5 (bovine aorta) (Bos taurus, UniProt Q28156); test: Inhibitory effect on cGMP-PDE, one-step assay, enzyme from bovine aorta; conditions: read-out: PDE5 IC50; Table 2, Intermediates; footnote 1) vs. bovine aorta

| Structure (SMILES) | IC50 (recombinant human PDE5) [µM] | IC50 (PDE5 (bovine aorta)) [µM] |
| --- | --- | --- |
| COC(=O)[C@H]1Cc2c([nH]c3ccccc23)[C@@H](c2ccc3c(c2)OCO3)N1 | 0.36 | – |
| COC(=O)[C@@H]1Cc2c([nH]c3ccccc23)[C@@H](c2ccc3c(c2)OCO3)N1 | – | 0.47 |
| COc1ccc([C@H]2N[C@H](C(=O)NCCc3ccc(OC)c(OC)c3)Cc3c2[nH]c2ccccc32)cc1Cl | 0.86 | – |
| O=C(NCCc1ccc(F)cc1)C1Cc2c([nH]c3ccccc23)C(c2ccc3c(c2)OCO3)N1 (single isomer, unassigned) [30b] | 0.42 | – |
| COc1ccc(CCNC(=O)C2Cc3c([nH]c4ccccc34)C(c3ccc4c(c3)OCO4)N2)cc1OC (single isomer, unassigned) [17b] | 0.12 | – |
| COc1ccc(CCNC(=O)[C@@H]2Cc3c([nH]c4ccccc34)[C@@H](c3ccccc3)N2)cc1OC | 0.23 | – |
| O=C(NCC1CC1)C1Cc2c([nH]c3ccccc23)C(c2ccc3c(c2)OCO3)N1 (single isomer, unassigned) [26a] | 0.82 | – |
| O=C(Nc1ccc(F)cc1)[C@@H]1Cc2c([nH]c3ccccc23)[C@@H](c2ccc3c(c2)OCO3)N1 | 0.48 | – |
| COc1ccc(C2NC(C(=O)NCc3ccccc3)Cc3c2[nH]c2ccccc32)cc1 (centres unmarked) | 0.51 | – |
| Nc1ccc(CNC(=O)[C@@H]2Cc3c([nH]c4ccccc34)[C@@H](c3ccc4c(c3)OCO4)N2)cc1 | 0.33 | – |
| COCCCNC(=O)C1Cc2c([nH]c3ccccc23)C(c2ccc3c(c2)OCO3)N1 (single isomer, unassigned) [29a] | 0.34 | – |
| CCOC(=O)[C@H]1Cc2c([nH]c3ccccc23)[C@H](c2ccc(OC)cc2)N1 | – | 0.65 |
| O=C(NCCCN1CCCC1=O)[C@@H]1Cc2c([nH]c3ccccc23)[C@@H](c2ccc3c(c2)OCO3)N1 | 0.43 | – |
| O=C(NCCCn1ccnc1)[C@@H]1Cc2c([nH]c3ccccc23)[C@@H](c2ccc3c(c2)OCO3)N1 | 0.68 | – |
| CCOC(=O)[C@@H]1Cc2c([nH]c3ccccc23)[C@H](c2ccc3c(c2)OCO3)N1 | – | 0.2 |
| COc1ccc(CNC(=O)C2Cc3c([nH]c4ccccc34)C(c3ccc4c(c3)OCO4)N2)cc1OC (single isomer, unassigned) [16a] | 0.53 | – |
| COCCCNC(=O)C1Cc2c([nH]c3ccccc23)C(c2ccc3c(c2)OCO3)N1 (single isomer, unassigned) [29b] | 0.23 | – |
| O=C(NC1CC1)[C@@H]1Cc2c([nH]c3ccccc23)[C@@H](c2ccc3c(c2)OCO3)N1 | 0.59 | – |
| O=C(Nc1ccccc1)[C@@H]1Cc2c([nH]c3ccccc23)[C@@H](c2ccc3c(c2)OCO3)N1 | 0.36 | – |
| COC(=O)C1Cc2c([nH]c3ccccc23)C(c2ccccc2)N1 (centres unmarked) | 0.65 | – |
| CCOC(=O)[C@@H]1Cc2c([nH]c3ccccc23)[C@@H](c2ccc3c(c2)OCO3)N1 | – | 0.7 |
| COc1ccc(CCNC(=O)C2NC(c3ccc4c(c3)OCO4)c3[nH]c4ccccc4c3C2C)cc1OC (centres unmarked) | 0.62 | – |
| NC(=O)[C@@H]1Cc2c([nH]c3ccccc23)[C@@H](c2ccc3c(c2)OCO3)N1 | 0.89 | – |
| COc1ccc(CNC(=O)C2Cc3c([nH]c4ccccc34)C(c3ccc4c(c3)OCO4)N2)cc1OC (single isomer, unassigned) [16b] | 0.31 | – |

| Structure (SMILES) | IC50 (recombinant human PDE5) [µM] | IC50 (PDE5 (bovine aorta)) [µM] |
| --- | --- | --- |
| O=C(NCCc1ccccn1)[C@@H]1Cc2c([nH]c3ccccc23)[C@@H](c2ccc3c(c2)OCO3)N1 | 0.22 | – |
| COc1ccc([C@H]2N[C@H](C(=O)NCCc3ccc(OC)c(OC)c3)Cc3c2[nH]c2ccccc32)cc1 | 0.09 | – |
| O=C(NCC1CC1)C1Cc2c([nH]c3ccccc23)C(c2ccc3c(c2)OCO3)N1 (single isomer, unassigned) [26b] | 0.54 | – |
| O=C(NC1CCCCC1)[C@@H]1Cc2c([nH]c3ccccc23)[C@@H](c2ccc3c(c2)OCO3)N1 | 0.8 | – |
| COC(=O)[C@H]1Cc2c([nH]c3ccccc23)[C@@H](c2ccc3c(c2)OCO3)N1C(=O)Oc1ccc([N+](=O)[O-])cc1 | – | 0.5 |
| O=C(NCCCN1CCOCC1)[C@H]1Cc2c([nH]c3ccccc23)[C@H](c2ccc3c(c2)OCO3)N1 | 0.96 | – |
| CC(=O)Nc1ccc(CNC(=O)[C@@H]2Cc3c([nH]c4ccccc34)[C@@H](c3ccc4c(c3)OCO4)N2)cc1 | 0.16 | – |
| O=C(NCCc1ccccc1)[C@@H]1Cc2c([nH]c3ccccc23)[C@@H](c2ccc3c(c2)OCO3)N1 | 0.29 | – |
| O=C(NCCc1ccccc1)[C@@H]1Cc2c([nH]c3ccccc23)[C@H](c2ccc3c(c2)OCO3)N1 | 0.92 | – |
| O=C(NCCc1ccc(F)cc1)C1Cc2c([nH]c3ccccc23)C(c2ccc3c(c2)OCO3)N1 (single isomer, unassigned) [30a] | 0.78 | – |
| CC(C)NC(=O)[C@@H]1Cc2c([nH]c3ccccc23)[C@H](c2ccc3c(c2)OCO3)N1 | 0.92 | – |
| CCCCNC(=O)C1Cc2c([nH]c3ccccc23)C(c2cccc(Cl)c2)N1 (centres unmarked) | – | 0.9 |
| COC(=O)C1Cc2c([nH]c3ccccc23)C(c2ccccc2Cl)N1 (centres unmarked) | – | 0.8 |
| O=C(NCC1CCCCC1)[C@@H]1Cc2c([nH]c3ccccc23)[C@H](c2ccc3c(c2)OCO3)N1 | 0.68 | – |
| O=C(NCCN1CCOCC1)[C@@H]1Cc2c([nH]c3ccccc23)[C@@H](c2ccc3c(c2)OCO3)N1 | 0.42 | – |
| O=C(NCc1ccc(F)cc1)[C@@H]1Cc2c([nH]c3ccccc23)[C@@H](c2ccc3c(c2)OCO3)N1 | 0.83 | – |
| O=C(NCc1ccccc1)[C@H]1Cc2c([nH]c3ccccc23)[C@H](c2ccc3c(c2)OCO3)N1 | 0.76 | – |
| CNC(=O)[C@@H]1Cc2c([nH]c3ccccc23)[C@H](c2ccc3c(c2)OCO3)N1 | 0.86 | – |
| CC(C)NC(=O)[C@@H]1Cc2c([nH]c3ccccc23)[C@@H](c2ccc3c(c2)OCO3)N1 | 0.94 | – |
| COCCCNC(=O)C1NC(c2ccc3c(c2)OCO3)c2[nH]c3ccccc3c2C1C (centres unmarked) | 0.77 | – |
| CCCCNC(=O)C1Cc2c([nH]c3ccccc23)C(c2ccc(OC)cc2)N1 (centres unmarked) | – | 0.2 |
| COc1ccc(CCNC(=O)C2Cc3c([nH]c4ccccc34)C(c3ccc4c(c3)OCO4)N2)cc1OC (single isomer, unassigned) [17a] | 0.38 | – |
| CCOC(=O)[C@H]1Cc2c([nH]c3ccccc23)[C@@H](c2ccc(OC)cc2)N1 | – | 0.85 |
